{
  "sequences": {"note": "The chains behind the UniProt entries cited, without tags or fusion partners.", "UniProt O75874, whole entry S280F": "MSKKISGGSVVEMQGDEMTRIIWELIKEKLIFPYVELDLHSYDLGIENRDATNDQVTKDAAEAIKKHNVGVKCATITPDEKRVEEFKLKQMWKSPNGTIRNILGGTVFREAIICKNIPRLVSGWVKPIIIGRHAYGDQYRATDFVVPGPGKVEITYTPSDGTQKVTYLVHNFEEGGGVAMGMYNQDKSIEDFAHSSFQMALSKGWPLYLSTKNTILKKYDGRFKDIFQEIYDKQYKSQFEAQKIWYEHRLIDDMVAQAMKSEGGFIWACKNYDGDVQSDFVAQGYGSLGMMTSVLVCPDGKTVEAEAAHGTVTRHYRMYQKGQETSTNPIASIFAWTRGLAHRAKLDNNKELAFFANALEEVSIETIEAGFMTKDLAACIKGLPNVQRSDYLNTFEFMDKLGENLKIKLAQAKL", "UniProt O75874, whole entry": "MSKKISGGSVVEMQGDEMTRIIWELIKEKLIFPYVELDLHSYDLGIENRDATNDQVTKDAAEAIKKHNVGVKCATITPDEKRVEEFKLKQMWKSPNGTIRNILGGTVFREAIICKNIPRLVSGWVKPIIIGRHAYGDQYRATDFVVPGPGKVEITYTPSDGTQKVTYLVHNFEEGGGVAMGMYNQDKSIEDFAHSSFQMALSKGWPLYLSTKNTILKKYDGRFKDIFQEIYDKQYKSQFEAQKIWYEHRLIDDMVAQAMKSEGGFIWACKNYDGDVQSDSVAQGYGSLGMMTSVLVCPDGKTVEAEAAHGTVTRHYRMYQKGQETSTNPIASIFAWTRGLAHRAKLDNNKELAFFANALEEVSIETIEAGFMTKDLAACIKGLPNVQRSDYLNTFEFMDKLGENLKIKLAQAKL"},
  "source": "paper PMC9378673",
  "about": "(Nature Communications, 2022)",
  "key": {"IDH1 S280F": {"target": "T1, IDH1 S280F (Homo sapiens, UniProt O75874, S280F)", "T1 construct": "made in house; host or cells: E. coli BL21(DE3)plysS", "assay": "Steady-state kinetics, spectrophotometric NADPH absorption assay", "type": "biochemical", "settings": "oxidative decarboxylation of isocitrate; 1 nM enzyme; varied substrate = label", "procedure": "(§1) This assay was used to study steady-state kinetics and inhibition of reactions catalysed by IDH1 variants. The assay buffer was 100 mM Tris, 10 mM MgCl2, 0.2 mM dithiothreitol (DTT), 0.005%(v/v) Tween 20, and 0.1 mg mL^−1 bovine serum albumin (BSA) (pH 8.0). For inhibition assays, IDH1 variants were incubated with an inhibitor for 12 min before the reaction was initiated by substrate addition. The standard error was derived from curve fitting using GraphPad Prism v9. See figure legends for details on specific kinetic assays (Figs. 1–3; Supplementary Fig. 5; Supplementary Table 1). […]\n(§2) spectrophotometric NADPH absorption assay. Conditions: 100 mM Tris, 10 mM MgCl2, 0.2 mM DTT, 0.005 %(v/v) Tween 20, and 0.1 mg/mL bovine serum albumin (BSA), pH 8.0. […] (a) Michaelis Menten […]\n(§3) parameters for the oxidative decarboxylation of isocitrate. Errors: standard error of the mean (n = 3). (b) Michaelis Menten parameters for the reduction of 2-OG to 2-HG. Errors: standard error of the mean (n = 3)."}, "IDH1 wt": {"target": "T2, IDH1 wt (Homo sapiens, UniProt O75874)", "T2 construct": "made in house; host or cells: E. coli BL21(DE3)plysS", "assay": "Steady-state kinetics, spectrophotometric NADPH absorption assay", "type": "biochemical", "settings": "oxidative decarboxylation of isocitrate; 1 nM enzyme; varied substrate = label", "procedure": "as §1, §2, §3"}},
  "note": "Where a name gives a salt, the structure may show the parent alone.",
  "data": [
    {"smiles": "O=C(O)CC(C(=O)O)C(O)C(=O)O", "note": "(racemic) [DL-Isocitrate, DL-isocitric acid trisodium salt]", "values": [
      {"measurement": "kcat IDH1 S280F", "setting": "IDH1 S280F", "value": "33.4 ± 0.9", "unit": "s⁻¹"},
      {"measurement": "kcat IDH1 wt", "setting": "IDH1 wt", "value": "43 ± 1", "unit": "s⁻¹"}
    ]}
  ]
}
